## AlphaSeq binding of Ab-91 heavy chain variants to a spike HR2 peptide

Antigen: PDVDLGDISGINAS, a 14-residue peptide of the SARS-CoV-2 spike HR2 region.

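The starting antibody came from a phage panning campaign against this peptide. In library AAYL51, one, two or three CDR residues were substituted; doubles and triples were drawn at random. Affinity was read by AlphaSeq, a pooled yeast mating assay with surface-displayed partners. The frequency of each diploid, read from paired DNA barcodes, reflects how well the two displayed proteins bind. Scores were corrected for input abundance and mapped to Kd with protein pairs of known affinity run in the same pool. Each pool was mated in three replicate cultures.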

Parent scFv Ab-91: VL joined to VH by a 15-residue (Gly4Ser)3 linker. Changes lie in the heavy chain CDRs alone.
VL: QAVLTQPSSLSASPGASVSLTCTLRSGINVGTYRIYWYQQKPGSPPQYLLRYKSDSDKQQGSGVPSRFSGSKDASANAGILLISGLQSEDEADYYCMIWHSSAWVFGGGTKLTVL
VH: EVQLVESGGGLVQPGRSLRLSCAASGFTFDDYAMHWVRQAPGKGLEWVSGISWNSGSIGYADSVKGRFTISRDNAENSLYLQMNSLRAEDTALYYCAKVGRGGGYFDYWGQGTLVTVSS

Positions count from residue 1 of the parent VH; S55M puts M in place of S. Scale: log10 of Kd in nM, estimated from mating counts; low values are strong binders. The mean shown is taken over the replicates in which the pair was detected. An entry "n.d." has no value in the source: the pair was not observed among the diploids in that replicate. This suggests poor binding but is not conclusive. Parent in this assay: reference entry 1.86, copy in this library 0.88. Empty control strains, which show no peptide, gave a signal in 21% of pairings with library AAYL51; the median was 4.54 and 95% of these signals were weaker than 3.26. No background was subtracted. For each scFv, signals with the empty controls are counted beside the result, with their mean in brackets.

changes | replicates, log10 nM | log10 Kd (nM), mean | control signals
S55M V64W G102N | 5.20 5.92 n.d. | 5.56 | 2/9 (4.73)
K65W V99I G100H | 3.74 n.d. 3.95 | 3.84 | 0/9
G59H G100Y G104W | 3.98 n.d. n.d. | 3.98 | 0/9
I51G Y60F S63T | 4.18 n.d. n.d. | 4.18 | 3/9 (3.66)
N54S S55W V64N | n.d. n.d. n.d. | n.d. | 0/9
Y32T I51V S55R | n.d. n.d. n.d. | n.d. | 2/9 (4.00)
G26F S52N G104H | n.d. n.d. n.d. | n.d. | 1/9 (4.23)
S57A | 1.16 1.19 0.68 | 1.01 | 5/9 (5.71)
T28L D30N G50S | n.d. n.d. n.d. | n.d. | 2/9 (4.00)
G26P M34D S63D | 5.05 n.d. n.d. | 5.05 | 4/9 (4.35)
D30L V99E G100N | 5.78 4.35 4.33 | 4.82 | 2/9 (5.01)
F29T Y32I G56I | n.d. n.d. n.d. | n.d. | 1/9 (3.03)
T28W G59Q Y105M | n.d. n.d. n.d. | n.d. | 0/9
F27H I51K G100Q | n.d. n.d. n.d. | n.d. | 0/9
Y60P A61Q V64Q | n.d. n.d. n.d. | n.d. | 0/9
D30M Y32V | 1.24 1.33 0.73 | 1.10 | 6/9 (6.16)
T28N W53M D107I | n.d. n.d. n.d. | n.d. | 1/9 (3.75)
D30L I51D S55R | n.d. n.d. n.d. | n.d. | 0/9
D30Y H35P D62W | n.d. n.d. n.d. | n.d. | 0/9
W53I I58C Y60M | 4.29 4.20 4.33 | 4.27 | 4/9 (4.75)
D31Q Y60A S63Q | 1.98 2.40 1.72 | 2.03 | 0/9
G59C R101P G103R | n.d. n.d. n.d. | n.d. | 0/9
Y32K G50Q K65Y | n.d. n.d. n.d. | n.d. | 0/9
S52I D62Q G103H | 2.81 n.d. 4.13 | 3.47 | 2/9 (4.05)
Y60V S63V D107P | n.d. 5.47 n.d. | 5.47 | 1/9 (4.45)
F29G S63G | n.d. n.d. n.d. | n.d. | 1/9 (3.89)
G26C W53D Y60L | n.d. n.d. n.d. | n.d. | 0/9
D30M G50R G103F | n.d. n.d. n.d. | n.d. | 0/9
W53A V64C D107Y | 2.33 2.05 1.89 | 2.09 | 0/9
A33V S55I G56H | 5.56 n.d. n.d. | 5.56 | 2/9 (4.40)
H35W I51G V64I | 4.45 4.83 4.79 | 4.69 | 2/9 (4.87)
M34Q W53E V99W | 4.28 5.88 n.d. | 5.08 | 3/9 (4.11)

From the list, the first 4 with no signal in any replicate:

changes | replicates, log10 nM | log10 Kd (nM), mean | control signals
N54S S55W V64N | n.d. n.d. n.d. | n.d. | 0/9
Y32T I51V S55R | n.d. n.d. n.d. | n.d. | 2/9 (4.00)
G26F S52N G104H | n.d. n.d. n.d. | n.d. | 1/9 (4.23)
T28L D30N G50S | n.d. n.d. n.d. | n.d. | 2/9 (4.00)

The measurements come from Engelhart et al. 2022 (doi:10.1038/s41597-022-01779-4) through the FLAb antibody collection.